Reference: ChEMBL document CHEMBL1128962, “Serotoninergic 5-HT3 and 5-HT4 receptor activities of dihydrobenzofuran carboxylic acid derivatives” (Bioorg Med Chem Lett, 1996)

Chains of the proteins cited; added tags and fusions are not shown. Lines headed by an entry give the natural chain unless they say otherwise; changes in a name come on top.
UniProt P46098: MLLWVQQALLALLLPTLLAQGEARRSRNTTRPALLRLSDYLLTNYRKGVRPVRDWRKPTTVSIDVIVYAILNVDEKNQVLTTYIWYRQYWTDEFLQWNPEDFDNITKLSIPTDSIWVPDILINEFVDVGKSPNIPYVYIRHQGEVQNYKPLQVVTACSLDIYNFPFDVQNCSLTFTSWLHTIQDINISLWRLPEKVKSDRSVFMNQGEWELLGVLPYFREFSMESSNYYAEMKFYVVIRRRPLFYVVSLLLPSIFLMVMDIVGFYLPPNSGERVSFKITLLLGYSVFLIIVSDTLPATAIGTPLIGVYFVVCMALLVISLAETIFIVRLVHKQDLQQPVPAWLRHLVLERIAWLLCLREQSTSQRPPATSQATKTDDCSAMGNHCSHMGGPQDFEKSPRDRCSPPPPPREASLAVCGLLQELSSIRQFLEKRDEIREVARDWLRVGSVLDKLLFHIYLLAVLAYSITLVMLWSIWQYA
UniProt A5X5Y0: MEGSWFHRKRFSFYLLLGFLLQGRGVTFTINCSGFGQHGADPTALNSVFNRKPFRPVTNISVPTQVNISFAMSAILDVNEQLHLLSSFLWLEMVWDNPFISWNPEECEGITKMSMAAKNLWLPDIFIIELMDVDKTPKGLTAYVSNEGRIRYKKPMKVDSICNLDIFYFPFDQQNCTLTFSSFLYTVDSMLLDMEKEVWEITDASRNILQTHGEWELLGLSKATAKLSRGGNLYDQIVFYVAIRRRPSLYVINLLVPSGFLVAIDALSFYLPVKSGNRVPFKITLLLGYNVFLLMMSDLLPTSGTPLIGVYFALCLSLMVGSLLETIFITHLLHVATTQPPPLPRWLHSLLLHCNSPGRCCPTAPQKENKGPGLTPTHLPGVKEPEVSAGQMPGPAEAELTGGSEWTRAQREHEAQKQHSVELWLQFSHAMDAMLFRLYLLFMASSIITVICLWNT
UniProt O95264: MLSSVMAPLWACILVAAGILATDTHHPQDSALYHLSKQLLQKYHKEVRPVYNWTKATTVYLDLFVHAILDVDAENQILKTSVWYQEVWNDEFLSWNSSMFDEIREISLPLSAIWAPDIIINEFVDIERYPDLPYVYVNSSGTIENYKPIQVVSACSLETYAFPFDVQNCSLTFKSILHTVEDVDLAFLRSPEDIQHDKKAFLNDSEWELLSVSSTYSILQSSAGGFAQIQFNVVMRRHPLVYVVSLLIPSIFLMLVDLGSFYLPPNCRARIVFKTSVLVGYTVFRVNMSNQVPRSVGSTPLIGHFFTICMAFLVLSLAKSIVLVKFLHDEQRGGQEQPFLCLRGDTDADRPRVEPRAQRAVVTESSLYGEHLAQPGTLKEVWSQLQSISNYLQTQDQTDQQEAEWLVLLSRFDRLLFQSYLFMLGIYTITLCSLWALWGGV
UniProt Q70Z44: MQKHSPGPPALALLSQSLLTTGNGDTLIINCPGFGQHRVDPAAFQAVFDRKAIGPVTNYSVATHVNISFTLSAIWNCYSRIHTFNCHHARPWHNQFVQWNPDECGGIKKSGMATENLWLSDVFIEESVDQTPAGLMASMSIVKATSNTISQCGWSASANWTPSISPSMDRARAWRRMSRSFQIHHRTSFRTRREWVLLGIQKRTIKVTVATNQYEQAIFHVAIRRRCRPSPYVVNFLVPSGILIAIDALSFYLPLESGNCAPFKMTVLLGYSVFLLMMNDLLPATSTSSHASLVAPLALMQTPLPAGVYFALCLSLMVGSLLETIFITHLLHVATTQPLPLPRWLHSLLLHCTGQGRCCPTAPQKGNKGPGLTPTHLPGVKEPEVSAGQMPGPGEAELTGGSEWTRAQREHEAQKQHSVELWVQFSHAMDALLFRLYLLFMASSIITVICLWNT
UniProt Q8WXA8: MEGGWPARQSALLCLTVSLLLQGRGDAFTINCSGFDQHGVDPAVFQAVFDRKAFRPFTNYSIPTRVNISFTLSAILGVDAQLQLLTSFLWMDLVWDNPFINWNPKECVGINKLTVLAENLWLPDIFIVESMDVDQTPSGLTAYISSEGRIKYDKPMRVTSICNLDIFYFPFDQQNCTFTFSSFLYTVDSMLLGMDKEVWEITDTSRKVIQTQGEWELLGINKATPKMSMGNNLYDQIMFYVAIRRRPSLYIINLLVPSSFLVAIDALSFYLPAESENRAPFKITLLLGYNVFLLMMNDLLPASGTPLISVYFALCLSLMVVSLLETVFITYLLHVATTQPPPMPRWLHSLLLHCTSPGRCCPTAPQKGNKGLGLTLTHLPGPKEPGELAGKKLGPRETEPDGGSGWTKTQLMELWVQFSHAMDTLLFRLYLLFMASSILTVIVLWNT

Biological target: Serotonin 3 (5-HT3) receptor (Homo sapiens) (UniProt P46098+A5X5Y0+O95264+Q70Z44+Q8WXA8)
Assay: In vitro 5-hydroxytryptamine 3 receptor activity in guinea pig ileum
Type: tissue-based
Conditions: Cavia porcellus, target entry is the homologue from another species

Row | Structure (SMILES) | Kb
1 | Nc1c(Cl)cc(C(=O)O[C@@H]2CN3CCC2CC3)c2c1CCO2 | 6.91 nM
2 | Nc1c(Cl)cc(C(=O)O[C@H]2CN3CCC2CC3)c2c1CCO2 | 19 nM
